Experimental data from ChEMBL document CHEMBL4842369, “Synthesis, structure-activity relationship and antiviral activity of indole-containing inhibitors of Flavivirus NS2B-NS3 protease” (Eur J Med Chem, 2021).
Active and inactive are the calls of the source. No cut-off for these calls is given here.

Target: Nonstructural protein 3 (Zika virus) (UniProt A0A024AXB9)
Test: Competitive inhibition of Zika virus recombinant NS2B (47 to 95 residues)/NS3 (1 to 177 residues) protease expressed in Escherichia coli BL21 using increased concentration of Bz-Nle-Lys-Lys-Arg-AMC substrate

O=C(NCC1CCNCC1)c1cc2ccc(-c3ccoc3)cc2[nH]1
Activity: inactive
